## Antibody variant affinities, Ab-14 light chain, assay 1

Source: Engelhart et al. 2022 (doi:10.1038/s41597-022-01779-4), MIT Lincoln Laboratory and A-Alpha Bio; data file from the FLAb repository.

Binding partner: SARS-CoV-2 spike HR2 peptide, sequence PDVDLGDISGINAS.

Parent: Ab-14, a human scFv built as VH, a 15-residue (Gly4Ser)3 linker, VL. Only the CDRs of the light chain vary.
VH: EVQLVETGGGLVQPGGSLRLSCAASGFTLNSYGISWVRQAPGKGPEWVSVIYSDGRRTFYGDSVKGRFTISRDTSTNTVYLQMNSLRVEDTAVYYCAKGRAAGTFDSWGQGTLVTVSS
VL: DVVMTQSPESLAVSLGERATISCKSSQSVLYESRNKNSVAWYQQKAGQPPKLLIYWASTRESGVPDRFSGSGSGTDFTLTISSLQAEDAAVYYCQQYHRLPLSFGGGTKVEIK

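Phage display of a naive human antibody library on the peptide gave the parent. In library AAYL50, one, two or three CDR residues were substituted; doubles and triples were drawn at random. AlphaSeq pools MATa yeast showing the antibodies with MATalpha yeast showing the peptide. The frequency of each diploid, read from paired DNA barcodes, reflects how well the two displayed proteins bind. Each replicate has its own calibration line, from reference interactions of the BCL2 family. There are three technical replicates.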

The parent's light chain CDRs are KSSQSVLYESRNKNSVA, WASTRES, QQYHRLPLS; each variant's own CDRs replace them letter for letter.
This list gathers variants with a substitution at S26 (VL, numbered from residue 1).
Kd is apparent (estimated from mating counts) and averaged on the log scale over replicates with a signal. Smaller is tighter.
Where no diploid with the target was found in any replicate, the entry reads "no signal": below detection, most likely a poor binder, though not proof of it.
Three control strains display no target. For library AAYL50, 18% of the pairings with them gave a signal, with a median of 15 µM and one signal in twenty below 970 nM, so weak values seen in few replicates may be background. Also given: how often the same scFv was detected with the empty control strains.

With KSCQSVVYESRNKNSVA | WASTRES | QQYHWLPLS the result was 100 nM (3 of 3 replicates; controls 1 of 9). Variant KWGQSVLYESRNKNSVA | WASTRES | MQYHRLPLS showed 4.7 µM (1 of 3 replicates; controls 1 of 9). With KSTESVLYESRNKNSVA | WASTRET | QQYHRLPLS the result was 5.6 nM (3 of 3 replicates; controls 0 of 9). With KSQQSVLYESRNKESVA | VASTRES | QQYHRLPLS the result was no signal (0 of 3 replicates; controls 5 of 9). Variant KSASSVLYESRNKNSVA | WADTRES | QQYHRLPLS gave 280 nM (3 of 3 replicates; controls 1 of 9).

With KSLQSVLYESRNKNSVA | WWSTRES | QQYHRLPLS the result was 16 µM (2 of 3 replicates; controls 4 of 9). Variant KSWQSFLYESRNKNFVA | WASTRES | QQYHRLPLS showed 130 µM (2 of 3 replicates; controls 2 of 9). For KSCQSRLYESQNKNSVA | WASTRES | QQYHRLPLS, the assay gave 46 nM (3 of 3 replicates; controls 2 of 9). Variant KSFQSVLYCSRNKNSVA | WAQTRES | QQYHRLPLS showed 310 µM (2 of 3 replicates; controls 4 of 9). With KSMQSVLYESRQKNSVA | WASTRES | QGYHRLPLS the result was 61 nM (3 of 3 replicates; controls 2 of 9).

Variant KSRQSVLYESRNKESVA | WASNRES | QQYHRLPLS showed 2.4 µM (2 of 3 replicates; controls 1 of 9). Variant KSFQSVLYEFRNKNSVA | WASTRES | QQYHKLPLS gave 51 µM (3 of 3 replicates; controls 0 of 9). With KSDGSVLYESRNKNSCA | WASTRES | QQYHRLPLS the result was 380 nM (1 of 3 replicates; controls 0 of 9). With KSEQSVLYEFRNKNSVA | WASTRES | QQYHRLALS the result was no signal (0 of 3 replicates; controls 1 of 9). For KSMQSVLYESRNKNSVA | WASTRES | QQSHRLPLS, the assay gave 6.6 nM (3 of 3 replicates; controls 1 of 9).

Variant KSPQSVLYESRNKNSVA | WAFTRES | QQYHYLPLS showed 3.0 µM (1 of 3 replicates; controls 1 of 9). With KSDQSILYESRNKNSVA | WASTREV | QQYHRLPLS the result was 35 nM (3 of 3 replicates; controls 1 of 9). Variant KSQQSVLYPSRNKNSVA | WASTNES | QQYHRLPLS gave no signal (0 of 3 replicates; controls 1 of 9). Variant KSGQSVLYESRNKNSVA | WASTRES | QQYCRLPLV showed 460 nM (3 of 3 replicates; controls 2 of 9). Variant KSQQWVLYESMNKNSVA | WASTRES | QQYHRLPLS showed 96 nM (3 of 3 replicates; controls 1 of 9).

Variant KSHQSVLYECCNKNSVA | WASTRES | QQYHRLPLS gave 22 µM (1 of 3 replicates; controls 1 of 9). Variant KSCQSVLYYSRNKNSVA | WAVTRES | QQYHRLPLS gave 20 µM (2 of 3 replicates; controls 0 of 9). Variant KSPQSVLYESRNKNSVA | WASTRES | QHYHRWPLS showed 21 nM (3 of 3 replicates; controls 0 of 9). Variant KSEQSVLYESRNKNSVA | WASTRES | QQYQRLPLW showed 5.1 nM (3 of 3 replicates; controls 4 of 9). With KSEQSVEYESREKNSVA | WASTRES | QQYHRLPLS the result was 8.8 nM (3 of 3 replicates; controls 0 of 9).

For KSPQSVLYESRNKNSVA | WASTHES | QQYHRLSLS, the assay gave no signal (0 of 3 replicates; controls 0 of 9). Variant KSCQSVLYESRNKNSVS | WASTRES | QQYHRLPTS gave no signal (0 of 3 replicates; controls 0 of 9). Variant KSKQSLLYESRNKNSVA | WASTRES | QQYHRNPLS showed 8.2 nM (3 of 3 replicates; controls 2 of 9). With KSNQSLLYESRNKNSVA | EASTRES | QQYHRLPLS the result was 930 pM (3 of 3 replicates; controls 3 of 9). For KSPQSVLYESRNKNSVA | WASTRES | QQYHRLHLS, the assay gave 41 nM (3 of 3 replicates; controls 3 of 9).

Variant KSKQSALYESRNKNSVA | WCSTRES | QQYHRLPLS gave 31 nM (3 of 3 replicates; controls 1 of 9). For KSLQSVLYESRNKNSVA | HASTRED | QQYHRLPLS, the assay gave 280 pM (3 of 3 replicates; controls 1 of 9). With KSYQSVLYESRNKNSVA | WASTRES | QQYPRLPLH the result was 160 µM (1 of 3 replicates; controls 0 of 9). For CSDQSVLYNSRNKNSVA | WASTRES | QQYHRLPLS, the assay gave 16 nM (3 of 3 replicates; controls 2 of 9). For KSFQSVLYESRIKNSVA | WASTRES | QQEHRLPLS, the assay gave 1.6 µM (1 of 3 replicates; controls 1 of 9).

Variant KSKQSVLYESRQKNSVA | WASTRES | QQYHRLCLS showed no signal (0 of 3 replicates; controls 0 of 9). With KSGQSVLYESRNKHSVA | WASCRES | QQYHRLPLS the result was 140 nM (3 of 3 replicates; controls 3 of 9). With KSFQSVLYESRNKNSVA | WASTRES | QQYQRLPWS the result was no signal (0 of 3 replicates; controls 0 of 9). Variant KSMHSVWYESRNKNSVA | WASTRES | QQYHRLPLS showed 1.6 nM (3 of 3 replicates; controls 1 of 9). For KSPQSVLPESRNKNSVA | WASTVES | QQYHRLPLS, the assay gave 2.9 µM (2 of 3 replicates; controls 1 of 9).

For KSCQSVLYESRNKNSVA | WASTRES | QQYFCLPLS, the assay gave 15 µM (1 of 3 replicates; controls 2 of 9). For KSRQSVLYESRNKNSVA | WASSRES | QQYHRLHLS, the assay gave 2.0 µM (1 of 3 replicates; controls 1 of 9). For KSTQSVLYERRNKNSVA | TASTRES | QQYHRLPLS, the assay gave 250 nM (3 of 3 replicates; controls 1 of 9). With KTPQSVVYESRNKNSVA | WASTRES | QQYHRLPLS the result was 6.4 nM (3 of 3 replicates; controls 0 of 9).

The first 7 variants above that were never detected:

KSQQSVLYESRNKESVA | VASTRES | QQYHRLPLS: no signal (0 of 3 replicates; controls 5 of 9).
KSEQSVLYEFRNKNSVA | WASTRES | QQYHRLALS: no signal (0 of 3 replicates; controls 1 of 9).
KSQQSVLYPSRNKNSVA | WASTNES | QQYHRLPLS: no signal (0 of 3 replicates; controls 1 of 9).
KSPQSVLYESRNKNSVA | WASTHES | QQYHRLSLS: no signal (0 of 3 replicates; controls 0 of 9).
KSCQSVLYESRNKNSVS | WASTRES | QQYHRLPTS: no signal (0 of 3 replicates; controls 0 of 9).
KSKQSVLYESRQKNSVA | WASTRES | QQYHRLCLS: no signal (0 of 3 replicates; controls 0 of 9).
KSFQSVLYESRNKNSVA | WASTRES | QQYQRLPWS: no signal (0 of 3 replicates; controls 0 of 9).